Reference: patent US20030055003A1, “Use of copper chelators to inhibit the inactivation of protein C” (priority 2001, published 2003)

Chains of the proteins cited; added tags and fusions are not shown. Residues count along the entry.
UniProt P04070, 43-197 limits assumed: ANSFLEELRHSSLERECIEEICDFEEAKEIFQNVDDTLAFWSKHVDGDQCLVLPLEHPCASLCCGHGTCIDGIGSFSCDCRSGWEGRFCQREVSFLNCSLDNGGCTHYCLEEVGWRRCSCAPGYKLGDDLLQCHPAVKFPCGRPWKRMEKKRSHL
UniProt P04070, 212-461 limits assumed: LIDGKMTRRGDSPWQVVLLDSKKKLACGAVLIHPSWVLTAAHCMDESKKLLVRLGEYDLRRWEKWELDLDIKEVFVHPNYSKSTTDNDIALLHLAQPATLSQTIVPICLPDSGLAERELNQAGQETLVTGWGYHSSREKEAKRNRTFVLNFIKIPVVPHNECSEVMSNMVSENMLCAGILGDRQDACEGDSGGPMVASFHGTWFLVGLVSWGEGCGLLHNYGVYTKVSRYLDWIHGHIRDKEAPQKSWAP

Experiments:
[1] = target: T1, activated protein C (APC) (Homo sapiens, UniProt P04070); assay: APC activity assay (Accucolor assay, modified for aqueous environment); type: biochemical; settings: 40 μM chelator with APC 2 mg/L, no added copper, 30 min 37° C., mean±SD
T1 construct: purchased Sigma (St. Louis, Mo.) P2200
Procedure: Materials. The human albumin N-terminus analogue, d-DAHK, was synthesized by Bowman Research, Ltd (Newport, Wales, U.K.). The assay for APC anticoagulant activity was the Accucolor™ calorimetric assay (Sigma Diagnostics, St. Louis, Mo.). APC (Sigma, product number P2200), HSA (Sigma, product number A1653), and all other chemicals were obtained from Sigma (St. Louis, Mo.). Copper content of APC was determined by graphite furnace atomic absorption (Galbraith Laboratories, Knoxville, Tenn.).
APC activity assay. The APC assay, originally designed for plasma samples (Francis et al., Am. J. Clin. Pathol. 87, 619-625 (1987)) was modified for use in a clean, aqueous environment. Solutions of CuCl2, HSA, and d-DAHK were prepared in 20 mM KH2PO4 buffer (pH 7.4). Experiments were performed in a 96-well plate. […] Concentrated acetic acid was added to each well to stop the reaction and the results were read at 410 nm on a microplate fluorescence reader (Model FL600, Bio-Tek Instruments, Inc., Winooski, Vt.). APC activity for copper alone, HSA alone, d-DAHK alone, and all combinations of HSA:CuCl2, and d-DAHK:CuCl2 were expressed as the mean percent change (±standard deviation) from baseline APC activity using buffer alone.

[2] = compared to electrolyte solution alone; cited from earlier work

HSA: human serum albumin (Sigma, product number A1653)
increase over baseline APC activity, chelator alone [1]: 202.1%±48.1 | effect on hemodynamic parameters and survival [2]: improve hemodynamic parameters and survival
